Test results as given in patent US9115117B2, “Substituted piperidine compounds and their use as orexin receptor modulators” (JANSSEN PHARMACEUTICA NV, priority 2013, dated 2015).
Counter-ions that a name gives are not always drawn.

Amino acid sequences for entries named in this document (tags omitted).
UniProt O43614, whole entry: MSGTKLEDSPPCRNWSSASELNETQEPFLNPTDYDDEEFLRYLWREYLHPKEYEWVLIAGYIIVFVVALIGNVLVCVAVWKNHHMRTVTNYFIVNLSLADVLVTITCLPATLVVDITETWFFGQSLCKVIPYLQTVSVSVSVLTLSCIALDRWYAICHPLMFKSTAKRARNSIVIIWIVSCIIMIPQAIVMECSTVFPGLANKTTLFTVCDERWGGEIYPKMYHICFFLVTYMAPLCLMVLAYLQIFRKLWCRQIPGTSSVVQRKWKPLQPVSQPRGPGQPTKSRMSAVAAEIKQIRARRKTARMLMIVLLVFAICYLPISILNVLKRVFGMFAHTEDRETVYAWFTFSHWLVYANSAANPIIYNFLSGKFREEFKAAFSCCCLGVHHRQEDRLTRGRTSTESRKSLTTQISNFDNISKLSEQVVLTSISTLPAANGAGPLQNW

Legend:
human orexin 2 receptor = human orexin 2 receptor (Homo sapiens (Human), UniProt O43614); assay: Human orexin 2 receptor radioligand binding ([3H]-EMPA); details: HEK293 stably expressing human orexin 2 receptor, apparent Ki, read-out: hOX2 Ki
Protocol: After centrifugation (2K×G, 5 min at 4° C.), the supernatant was aspirated and the pellets frozen and stored at −80° C. […] Each cell pellet from a 15 cm plate was resuspended in 10 mL, stored on ice, and homogenized for 45 sec just prior to addition to the reactions. Competition binding experiments in 96 well polypropylene plates were performed using [^3H]-EMPA (Moraveck Corporation, specific activity=29.6 Ci/mmol), diluted to a 5 nM concentration in PBS (2 nM final concentration). […] The final concentration of DMSO in the reactions is equal to or less than 0.1%. Total and nonspecific binding was determined in the absence and presence of […]. The total volume of each reaction is 200 μL (20 μL of diluted compounds, 80 μL of [^3H]-EMPA diluted in PBS and 100 μL of the cell suspension).
The plates were washed 3 times by aspirating 30 ml PBS through the plates. Plates were dried in 55° C. oven for 60 min, scintillation fluid was added, and the radioactivity was counted on a Topcount (Packard).

human orexin 1 receptor = human orexin 1 receptor (Homo sapiens, UniProt O43613); assay: Human orexin 1 receptor radioligand binding; details: CHO cells stably expressing human orexin 1 receptor; apparent Ki; read-out: hOX1 Ki
Protocol: The in vitro affinity of the compounds of the invention for the rat/human orexin 1 and human orexin 2 receptors was determined by competitive radioligand binding using [^3H](1-(5-(2-fluoro-phenyl)-2-methyl-thiazol-4-yl)-1-((S)-2-(5-phenyl-(1,3,4)oxadiazol-2-ylmethyl)-pyrrolidin-1-yl)-methanone)(Langmead et al., 2004) and [^3H]EMPA (n-ethyl-2[96-methoxy-pyridin-3-yl)-(toluene-2-sulfonyl)-amino]-N-pyridin-3-ylmethyl acetamide), respectively (Langmead et al., 2004, British Journal of Pharmacology 141:340-346; Malherbe et al., 2004, British Journal of Pharmacology 156:1326-41).
Human Embryonic Kidney 293 cells (HEK293) stably expressing rat orexin 1 receptor (Genebank accession number NM_001525) or Chinese ovary cells (CHO) stably expressing human orexin 1 receptor (Genebank accession number NM_001526) were grown to confluency in DMEM (Hyclone, cat #SH30022), 10% FBS, 1× Pen/Strep, 1× sodium pyruvate, 10 mM HEPES, 600 µg/mL G418 and DMEM/F12 (Gibco, Cat #11039), 10% FBS, 1× Pen/Strep, 600 µg/mL G418 media, respectively on 150 cm^2 tissue culture plates, washed with 5 mM EDTA in PBS (HyClone Dulbecco's Phoshpate Buffered Saline 1× with Calcium and Magnesium, Cat #SH30264.01, hereafter referred to simply as PBS) and scraped into 50 ml tubes. After centrifugation (2K×G, 5 min at 4° C.), the supernatant was aspirated and the pellets frozen and stored at −80° C. Cells were resuspended in PBS in the presence of 1 tablet of protease inhibitor cocktail (Roche, Cat. #11836145001) per 50 mL. Each cell pellet from a 15 cm plate was resuspended in 10 mL, stored on ice, and homogenized for 45 sec prior to addition to the reactions. Competition binding experiments in 96 well polypropylene plates were performed using [^3H]-(1-(5-(2-fluoro-phenyl)-2-methyl-thiazol-4-yl)-1-((S)-2-(5-phenyl-(1,3,4)oxadiazol-2-ylmethyl)-pyrrolidin-1-yl)-methanone) (Moraveck Corporation, specific activity=35.3 Ci/mmol), diluted to a 10 nM concentration in PBS (4 nM final). Compounds were solubilized in 100% DMSO (Acros Organics, Cat. #61042-1000) and tested over a range of 7 concentrations (from 0.1 nM to 10 μM). The final concentration of DMSO in the reactions is equal to or less than 0.1%. Total and nonspecific binding was determined in the absence and presence of 10 μM almorexant. The total volume of each reaction is 200 μL (20 μL of diluted compounds, 80 μL of [3H]-(1-(5-(2-fluoro-phenyl)-2-methyl-thiazol-4-yl)-1-((S)-2-(5-phenyl-(1,3,4)oxadiazol-2-ylmethyl)-pyrrolidin-1-yl)-methanone) diluted in PBS and 100 μL of the cell suspension). Reactions were run for 60 min at room temperature and terminated by filtration through GF/C filter plates (PerkinElmer, Cat. #6005174) presoaked in 0.3% polyethylenimine using the cell harvester (PerkinElmer Filtermate). The plates were washed 3 times by aspirating 30 ml PBS through the plates. Plates were dried in 55° C. oven for 60 min, scintillation fluid was added, and the radioactivity was counted on a Topcount (Packard).

rat orexin 1 receptor = rat orexin 1 receptor (Rattus norvegicus, UniProt P56718); assay: Rat orexin 1 receptor radioligand binding; details: HEK293 cells stably expressing rat orexin 1 receptor; apparent Ki; read-out: rOX1 Ki
Protocol: After centrifugation (2K×G, 5 min at 4° C.), the supernatant was aspirated and the pellets frozen and stored at −80° C. […] Each cell pellet from a 15 cm plate was resuspended in 10 mL, stored on ice, and homogenized for 45 sec prior to addition to the reactions. Competition binding experiments in 96 well polypropylene plates were performed using [^3H]-(1-(5-(2-fluoro-phenyl)-2-methyl-thiazol-4-yl)-1-((S)-2-(5-phenyl-(1,3,4)oxadiazol-2-ylmethyl)-pyrrolidin-1-yl)-methanone) (Moraveck Corporation, specific activity=35.3 Ci/mmol), diluted to a 10 nM concentration in PBS (4 nM final). […] The final concentration of DMSO in the reactions is equal to or less than 0.1%. Total and nonspecific binding was determined in the absence and presence of 10 μM almorexant. The total volume of each reaction is 200 μL (20 μL of diluted compounds, 80 μL of [3H]-(1-(5-(2-fluoro-phenyl)-2-methyl-thiazol-4-yl)-1-((S)-2-(5-phenyl-(1,3,4)oxadiazol-2-ylmethyl)-pyrrolidin-1-yl)-methanone) diluted in PBS and 100 μL of the cell suspension). […] The plates were washed 3 times by aspirating 30 ml PBS through the plates. Plates were dried in 55° C. oven for 60 min, scintillation fluid was added, and the radioactivity was counted on a Topcount (Packard).

C[C@H]1[C@H](Nc2ncc(Cl)cn2)CCCN1C(=O)c1ccccc1-n1nccn1 (racemic) [Example 30, (±)-trans-(2-(2H-1,2,3-triazol-2-yl)phenyl)(3-((5-chloropyrimidin-2-yl)amino)-2-methylpiperidin-1-yl)methanone] gave a Ki (human orexin 2 receptor) of 656 nM.
Molecule C[C@H]1[C@H](Nc2ccc(Cl)cn2)CCCN1C(=O)c1ccccc1-n1nccn1 (racemic) [Example 32, (±)-trans-(2-(2H-1,2,3-triazol-2-yl)phenyl)(3-((5-chloropyridin-2-yl)amino)-2-methylpiperidin-1-yl)methanone] has a Ki (human orexin 1 receptor) of 12 nM.
Cc1ccc(-c2ncccn2)c(C(=O)N2CCC[C@@H](Nc3cc(C)nc(C(F)(F)F)n3)[C@@H]2C)c1 (racemic) [Example 7, (±)-trans-(5-methyl-2-(pyrimidin-2-yl)phenyl)(2-methyl-3-((6-methyl-2-(trifluoromethyl)pyrimidin-4-yl)amino)piperidin-1-yl)methanone] gave a Ki (human orexin 1 receptor) of 126 nM.
CCOc1ccccc1C(=O)N1CCC[C@@H](Nc2nc3cc(Cl)ccc3o2)[C@H]1C (racemic) [Example 61, (±)-cis-(3-((5-chlorobenzo[d]oxazol-2-yl)amino)-2-methylpiperidin-1-yl)(2-ethoxyphenyl)methanone] gave a Ki (rat orexin 1 receptor) of 1100 nM.
Work on C[C@@H]1[C@H](Nc2cnc3ccccc3n2)CCCN1C(=O)c1ccccc1-n1nccn1 (racemic) [Example 63, (±)-cis-(2-(2H-1,2,3-triazol-2-yl)phenyl)(2-methyl-3-(quinoxalin-2-ylamino)piperidin-1-yl)methanone] yielded a Ki (rat orexin 1 receptor) of 3300 nM.
Work on Cc1ccc(N[C@@H]2CCCN(C(=O)c3ccccc3-n3nccn3)[C@H]2C)nc1 (racemic) [Example 37, (±)-trans-(2-(2H-1,2,3-triazol-2-yl)phenyl)(2-methyl-3-((5-methylpyridin-2-yl)amino)piperidin-1-yl)methanone] yielded a Ki (human orexin 2 receptor) of 824 nM.
Molecule Cc1cnc(N[C@@H]2CCCN(C(=O)c3ccccc3-n3nccn3)[C@H]2C)nc1 (racemic) [Example 31, (±)-trans-(2-(2H-1,2,3-triazol-2-yl)phenyl)(2-methyl-3-((5-methylpyrimidin-2-yl)amino)piperidin-1-yl)methanone] has a Ki (human orexin 1 receptor) of 120 nM and a Ki (rat orexin 1 receptor) of 131 nM.
With C[C@H]1[C@H](Nc2cnc3ccccc3n2)CCCN1C(=O)c1ccccc1-n1nccn1 (racemic) [Example 48, (±)-trans-(2-(2H-1,2,3-triazol-2-yl)phenyl)(2-methyl-3-(quinoxalin-2-ylamino)piperidin-1-yl)methanone] the Ki (human orexin 1 receptor) was 11 nM and the Ki (rat orexin 1 receptor) was 14 nM.
C[C@H]1[C@H](Nc2ccc(Br)cn2)CCCN1C(=O)c1ccccc1-n1nccn1 (racemic) [Example 42, (±)-trans-(2-(2H-1,2,3-triazol-2-yl)phenyl)(3-((5-bromopyridin-2-yl)amino)-2-methylpiperidin-1-yl)methanone] gave a Ki (human orexin 1 receptor) of 10 nM and a Ki (rat orexin 1 receptor) of 11 nM.
Molecule CCOc1ccc(C)nc1C(=O)N1CCC[C@@H](Nc2ccc(C(F)(F)F)cn2)[C@@H]1C (racemic) [Example 16, (±)-trans-(3-ethoxy-6-methylpyridin-2-yl)(2-methyl-3-((5-(trifluoromethyl)pyridin-2-yl)amino)piperidin-1-yl)methanone] has a Ki (human orexin 1 receptor) of 38 nM and a Ki (rat orexin 1 receptor) of 35 nM.
In the case of Cc1ccc(C(=O)N2CCC[C@@H](Nc3nccc(C(F)(F)F)n3)[C@@H]2C)c(-n2ccnn2)n1 (racemic) [Example 11, (±)-trans-(6-methyl-2-(1H-1,2,3-triazol-1-yl)pyridin-3-yl)(2-methyl-3-((4-(trifluoromethyl)pyrimidin-2-yl)amino)piperidin-1-yl)methanone], the Ki (human orexin 2 receptor) is reported as 634 nM.
With C[C@@H]1[C@H](Nc2ccc(Br)cn2)CCCN1C(=O)c1ccccc1-n1nccn1 (racemic) [Example 57, (±)-cis-(2-(2H-1,2,3-triazol-2-yl)phenyl)(3-((5-bromopyridin-2-yl)amino)-2-methylpiperidin-1-yl)methanone] the Ki (rat orexin 1 receptor) was 720 nM.
With C[C@H]1[C@H](Nc2ccc(C(F)(F)F)cn2)CCCN1C(=O)c1ncccc1-n1nccn1 (racemic) [Example 21, (±)-trans-(3-(2H-1,2,3-triazol-2-yl)pyridin-2-yl)(2-methyl-3-((5-(trifluoromethyl)pyridin-2-yl)amino)piperidin-1-yl)methanone] the Ki (human orexin 1 receptor) was 25 nM and the Ki (rat orexin 1 receptor) was 19 nM.
CCOc1ccccc1C(=O)N1CCC[C@@H](Nc2nc3cc(Cl)ccc3o2)[C@@H]1C (racemic) [Example 46, (±)-trans-(3-((5-chlorobenzo[d]oxazol-2-yl)amino)-2-methylpiperidin-1-yl)(2-ethoxyphenyl)methanone] showed a Ki (human orexin 1 receptor) of 153 nM and a Ki (rat orexin 1 receptor) of 185 nM.
Work on Cc1ccc(-c2ncccn2)c(C(=O)N2CCC[C@@H](Nc3ccc(C(F)(F)F)cn3)[C@@H]2C)n1 (racemic) [Example 23, (±)-trans-(2-methyl-3-((5-(trifluoromethyl)pyridin-2-yl)amino)piperidin-1-yl)(6-methyl-3-(pyrimidin-2-yl)pyridin-2-yl)methanone hydrochloride] yielded a Ki (rat orexin 1 receptor) of 36 nM.
Molecule C[C@H]1[C@H](Nc2ncc3ccccc3n2)CCCN1C(=O)c1ccccc1-n1nccn1 (racemic) [Example 39, (±)-trans-(2-(2H-1,2,3-triazol-2-yl)phenyl)(2-methyl-3-(quinazolin-2-ylamino)piperidin-1-yl)methanone] has a Ki (human orexin 1 receptor) of 12 nM and a Ki (rat orexin 1 receptor) of 32 nM.
Work on C[C@H]1[C@H](Nc2ccc(C(F)(F)F)cn2)CCCN1C(=O)c1cc(F)ccc1-n1nccn1 (racemic) [Example 24, (±)-trans-(5-fluoro-2-(2H-1,2,3-triazol-2-yl)phenyl)(2-methyl-3-((5-(trifluoromethyl)pyridin-2-yl)amino)piperidin-1-yl)methanone] yielded a Ki (human orexin 1 receptor) of 16 nM and a Ki (rat orexin 1 receptor) of 8 nM.
C[C@H]1[C@H](Nc2ccc(Cl)cn2)CCCN1C(=O)c1ccccc1-n1nccn1 [Example 100, (2-(2H-1,2,3-triazol-2-yl)phenyl)((2S,3R)-3-((5-chloropyridin-2-yl)amino)-2-methylpiperidin-1-yl)methanone] was tested, and the Ki (human orexin 1 receptor) was 12 nM.
